Experiments:
Format in all cases: cell-based, human
PP1Cα = PP1Cα activity of BIG3 immunoprecipitates from SK-BR-3 cells; settings: SK-BR-3, 24 hours; 10 μM H-89, 100 μg/mL trastuzumab, 10 nM lapatinib
Description: (A) The expression of BIG3 in a HER2-positive breast cancer cell line is shown. The mRNA levels of BIG3 in a luminal type breast cancer cell line (MCF-7 cells), HER2-positive breast cancer cell lines (BT-474 cells, SK-BR-3 cells, and KPL-4 cells), and a normal mammary gland cell line (MCP-10A cells) were determined by real-time PCR. Data were normalized by the β2-MG content and expressed as multiples (-fold) of the value in MCF-10A cells, with that value being defined as 1.0. Data represent the mean±standard error of three independent experiments. (B) Immunoblots are shown which indicate that BIG3 binds with PKA, PP1Cα, and PHB2. SK-BR-3 cells and KPL-4 cells were lysed, the cell lysates were immunoprecipitated using an anti-BIG3 antibody and a rat IgG antibody, and immunoblot analyses were performed using the antibodies shown in the drawing. Data shown are representatives from three independent experiments. (C) The kinase activity and phosphatase activity of BIG3 are shown. […]
The phosphatase activity of PP1Cα was determined using the Protein Phosphatase Assay Kit (AnaSpec, Fremont, Calif., USA). After cell lysates were incubated with a substrate (p-Nitrophenyl phosphate) at room temperature for 60 minutes, the reaction was stopped and the absorbance at 405 nm was measured. […]

BIG3 phosphorylation = BIG3 phosphorylation (Ser305, Ser1208) in SK-BR-3 and KPL-4 cells, immunoblot; settings: SK-BR-3 and KPL-4, 30 minutes; 10 μM H-89, 100 μg/mL trastuzumab, 10 nM lapatinib
Description: Immunoblots are shown which indicate that BIG3 is phosphorylated by PKA through HER2 signaling.
(§1) Cells were lysed in a lysis buffer (50 mM Tris-HCl: pH 8.0, 150 mM NaCl, 0.1% NP-40, 0.5% CHAPS) containing 0.1% protease inhibitor cocktail III (Calbiochem, San Diego, Calif., USA). The cell lysates were electrophorased, transferred to nitrocellulose membranes by blotting, and then the membranes were blocked with 4% BlockAce solution (Dainippon Pharmaceutical, Osaka, Japan) for 3 hours. […] The blots were scanned using the Image Reader LAS-3000 mini (Fujifilm, Tokyo, Japan). […]

[1] = system: PHB2 (Ser39) phosphorylation; test: PHB2 (Ser39) phosphorylation in SK-BR-3 cells, immunoblot; settings: SK-BR-3, presence of 1 μM stERAP; 100 μg/mL trastuzumab, 10 nM lapatinib
Description: (A) Immunoblots are shown which indicate that BIG3 binds to PHB2 and controls its phosphorylation. SK-BR-3 cells and KPL-4 cells were treated for 24 hours with 1 μM stERAP, cell lysates thereof were subjected to immunoprecipitation using an anti-BIG3 antibody and an anti-PHB2 antibody, and immunoblot analyses were performed using the antibodies shown in the drawing. (B) Immunoblots are shown which indicate that PHB2 is phosphorylated via EGFR signaling at Ser39. […] Cells were lysed respectively and were immunoprecipitated using an anti-PHB2 antibody, and immunoblot analyses were performed using the antibodies shown in the drawing.
as §1

HER2-HER3 interaction = test: HER2-HER3 interaction, immunoprecipitation with anti-HER2 antibody; settings: 24 hours
HER2-Shc interaction = test: HER2-Shc interaction, immunoprecipitation with anti-HER2 antibody; settings: 24 hours
[2] = system: trastuzumab-resistant SK-BR-3 cells; test: Cell growth assay, trastuzumab-resistant SK-BR-3 cells; settings: trastuzumab alone, 24 hours
Source text: (A) The results of MTT assays are shown, which evaluated the inhibitory effects of stERAP on the growth of trastuzumab-resistant HER2-positive breast cancer cell lines. […] Data represent the mean±SE of three independent experiments (*P<0.05, **P<0.01, and ***P<0.001). (B) immunoblots are shown which indicate that stERAP inhibits HER2-HER3 interaction and HER2-Shc interaction in a trastuzumab-resistant HER2-positive breast cancer cell line.
Cells were harvested, plated into 48-well plates at 2×10^4 cells/well, and maintained in an incubator (37° C.) in the presence of 5% CO2. At the point as instructed, a ten-fold diluted CCK-8 solution was added, this was incubated for 30 minutes, and the absorbance at 450 nm was measured to calculate the number of viable cells.

[3] = system: trastuzumab-resistant SK-BR-3 cells; test: Cell cycle of trastuzumab-resistant SK-BR-3 cells, FACS; settings: 20 μM stERAP or 100 μg/mL trastuzumab, 24 hours
Description: FACS analyses showing the effects of stERAP on the cell cycle are shown.
Cells were fixed using cold 70% ethanol, stained using 20 μg/mL propidium iodide (Sigma) and 1 mg/mL ribonuclease A (Sigma), and analyzed by FACS Calibur (BD, Franklin Lakes, N.J., USA). Cell cycle profiles were evaluated using CellQuest software (BD, Franklin Lakes, N.J., USA).

[4] = SK-BR-3, BT-474, KPL-4, single agent, trastuzumab 100 μg/mL
[5] = SK-BR-3 and trastuzumab-resistant SK-BR-3, 20 μM stERAP, 100 μg/mL trastuzumab

For trastuzumab: HER2 inhibitor, the “inhibition rate for PP1Cα activity” value (PP1Cα) was 88%, the “suppression of BIG3 phosphorylation (Ser305 and Ser1208)” value (BIG3 phosphorylation) was “nearly completely suppressed” and the “decrease of PHB2 (Ser39) phosphorylation” value [1] was “hardly observed”. The “inhibition of binding of HER2 to HER3” value (HER2-HER3 interaction; [4]) was “could hardly inhibit”, the “inhibition of binding of HER2-HER3” value (HER2-HER3 interaction; [5]) was “hardly affected” and the “inhibition of binding of HER2 to Shc” value (HER2-Shc interaction; [4]) was “could hardly inhibit”. The “inhibition of binding of HER2-Shc” value (HER2-Shc interaction; [5]) was “hardly affected”, the “suppression of growth” value [2] was “could not suppress” and the “effect on cell cycle, single agent” value [3] was “could hardly arrest the cell cycle”.

From patent US11091517B2, “Peptide derivative and pharmaceutical composition containing same” (TOKUSHIMA UNIVERSITY, priority 2017, dated 2021)
